Data: US9434725B2, “5-azaindazole compounds and methods of use” (priority 2012, dated 2016)

The chains behind the UniProt entries cited, without tags or fusion partners.
UniProt P11309, whole entry: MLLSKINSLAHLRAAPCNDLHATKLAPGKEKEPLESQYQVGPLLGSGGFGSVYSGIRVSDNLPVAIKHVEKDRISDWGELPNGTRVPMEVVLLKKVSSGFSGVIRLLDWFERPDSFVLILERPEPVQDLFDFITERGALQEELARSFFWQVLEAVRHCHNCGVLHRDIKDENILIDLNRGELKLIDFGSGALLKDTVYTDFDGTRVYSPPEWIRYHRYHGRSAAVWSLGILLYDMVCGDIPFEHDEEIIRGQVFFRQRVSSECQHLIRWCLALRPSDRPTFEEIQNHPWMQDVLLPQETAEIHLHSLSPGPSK

Columns and labels:
[1] = molecular target: PIM1 (Homo sapiens (Human), UniProt P11309); format: biochemical; conditions: 10 μM ATP, 90 min, room temperature; read-out: PIM1 LC3K (KI)
Description: A fluorescent-labeled Pim-specific peptide substrate, was custom synthesized by American Peptide Company (Sunnyvale, Calif.). Reaction Buffer contained 10 mM HEPES, pH 7.2, 10 mM MgCl2, 0.01% Tween 20, 2 mM DTT. Termination Buffer contained 190 mM HEPES, pH 7.2, 0.015% Brij-35, 0.2% Coating Reagent 3 (Caliper Life Sciences, Hopkinton, Mass.), 20 mM EDTA. Separation Buffer contained 100 mM HEPES, pH 7.2, 0.015% Brij-35, 0.1% Coating Reagent 3, 1:200 Coating Reagent 8 (Caliper Life Sciences, Hopkinton, Mass.), 10 mM EDTA and 5% DMSO.
PIM reactions were carried out in a final volume of 10 μL per well in a 384-well plate. […] After 90 minutes of incubation at room temperature, the phosphorylation reaction was stopped by the addition of 10 μL Termination Buffer. The product and substrate in each independent reaction were separated on a 12-sipper microfluidic chip (Caliper Life Sciences, Hopkinton, Mass.) run on a Caliper LC3000® (Caliper Life Sciences, Hopkinton, Mass.). The separation of product and substrate was optimized by choosing voltages and pressure using Caliper's Optimizer software (Hopkinton, Mass.). The separation conditions used a downstream voltage of −500V, an upstream voltage of −2150V, and a screening pressure of −1.2 psi. […] Substrate conversion was calculated from the electropherogram using HTS Well Analyzer software (Caliper Life Sciences, Hopkinton, Mass.). Ki values for the test compound were calculated.

[2] = tested on: BaF3 PIM1 cells; experiment: In vitro cell proliferation potency assay (Cell Titer Glo), BaF3 PIM1 cells; format: cell-based, murine; conditions: Mus musculus, BaF3, BaF3 cells transfected with PIM1, incubated overnight; read-out: Prolif BaF3_PIM 1 (IC50)
Description: BaF3 parental line was obtained from the DSMZ repository. BaF3 lines transfected with PIM1 or PIM2 were generated. Mouse IL-3 was purchased from R&D Systems. G418 was purchased from Clontech. Media for BaF3 parental line contained RPMI, 10% FBS, 2 mM L-Glutamine, 2 ng/mL mIL-3. Media for BaF3 PIM1 & 2 lines contained RPMI, 10% FBS, 2 mM L-Glutamine, […]. Media for MM1.S (multiple myeloma cells) line contained RPMI, 10% FBS, 2 mM L-Glutamine.
BaF3, a murine interleukin-3 dependent pro-B cell line, parental cells, BaF3 PIM1 cells, BaF3 PIM2 cells, and MM1.S (multiple myeloma) cells were seeded at 2 k/well, 5 k/well, 5 k/well, and 10 k/well respectively, in a 384-well plate, at 45 μL/well. Test compound was added at 5 μL/well. BaF3 cells (parental and transfected) were incubated overnight, while MM1.S cells were incubated for 72 hours at 37° C., 5% CO2. CELL TITER GLO® Reagent (Promega) was added at 50 μL/well, the plates were incubated for 30 minutes, and their luminescence read on an HT Analyst. IC50/EC50 values for the test compound were calculated.

Ki [1] [nM]	IC50 [2] [nM]	SMILES
0.021	196	CCc1cncc(-c2cc3c(cn2)cnn3-c2cccc(N3CCCNCC3)n2)n1 [Compound 150, 1-[6-(1 4-diazepan-1-yl)-2-pyridyl]-6-(6-ethylpyrazin-2-yl)pyrazolo[4 3-c]pyridine]
0.181	544	CCn1cncc(-c2cc3c(cn2)cnn3-c2cccc(N3CCNCC3)n2)c1=O [Compound 151, 3-ethyl-5-[1-(6-piperazin-1-yl-2-pyridyl)pyrazolo[4,3-c]pyridin-6-yl]pyrimidin-4-one]
0.095	291	FCCn1cc(-c2cc3c(cn2)cnn3-c2cccc(N3CCCNCC3)n2)cn1 [Compound 153, 1-(6-(1,4-Diazepan-1-yl)pyridin-2-yl)-6-(1-(2-fluoroethyl)-1H-pyrazol-4-yl)-1H-pyrazolo[4,3-c]pyridine]
0.081	344	FC(F)(F)Cn1cc(-c2cc3c(cn2)cnn3-c2cccc(N3CCCNCC3)n2)cn1 [Compound 154, 1-(6-(1,4-Diazepan-1-yl)pyridin-2-yl)-6-(1-(2,2,2-trifluoroethyl)-1H-pyrazol-4-yl)-1H-pyrazolo[4,3-c]pyridine]
0.144	518	N#CCn1cc(-c2cc3c(cn2)cnn3-c2cccc(N3CCCNCC3)n2)cn1 [Compound 155, 2-(4-(1-(6-(1,4-Diazepan-1-yl)pyridin-2-yl)-1H-pyrazolo[4,3-c]pyridin-6-yl)-1H-pyrazol-1-yl)acetonitrile]
0.047	1400	CCc1cncc(-c2cc3c(cn2)cnn3-c2cccc(N3CCC[C@H](N)C3)n2)n1 [Compound 156, (3S)-1-[6-[6-(6-ethylpyrazin-2-yl)pyrazolo[4,3-c]pyridin-1-yl]-2-pyridyl]piperidin-3-amine]
0.416	175	FC(F)Cn1cc(-c2cc3c(cn2)cnn3-c2cccc(N3CCCNCC3)n2)cn1 [Compound 162, 1-(6-(1,4-Diazepan-1-yl)pyridin-2-yl)-6-(1-(2,2-difluoroethyl)-1H-pyrazol-4-yl)-1H-pyrazolo[4,3-c]pyridine]
0.517	270	Cc1cncc(-c2cc3c(cn2)cnn3-c2cccc(C3CCNCC3)n2)n1 [Compound 166, 6-(6-methylpyrazin-2-yl)-1-[6-(4-piperidyl)-2-pyridyl]pyrazolo[4,3-c]pyridine]
0.773	546	Cc1cncc(-c2cc3c(cn2)cnn3-c2cccc(N3CC[C@H](N)C3)n2)n1 [Compound 167, (3S)-1-[6-[6-(6-methylpyrazin-2-yl)pyrazolo[4,3-c]pyridin-1-yl]-2-pyridyl]pyrrolidin-3-amine]
0.977	75.5	Cc1cncc(-c2cc3c(cn2)cnn3-c2cccc(N3CC[C@@H](N)C3)n2)n1 [Compound 168, (3R)-1-[6-[6-(6-methylpyrazin-2-yl)pyrazolo[4,3-c]pyridin-1-yl]-2-pyridyl]pyrrolidin-3-amine]
0.073	533	Cc1cncc(-c2cc3c(cn2)cnn3-c2ccc(Cl)c(N3CCC[C@H](N)C3)n2)n1 [Compound 176, (S)-1-(3-chloro-6-(6-(6-methylpyrazin-2-yl)-1H-pyrazolo[4,3-c]pyridin-1-yl)pyridin-2-yl)piperidin-3-amine]
0.122	745	c1cc(N2CCCNCC2)nc(-n2ncc3cnc(-c4cn[nH]c4)cc32)c1 [Compound 180, 1-(6-(1,4-Diazepan-1-yl)pyridin-2-yl)-6-(1H-pyrazol-4-yl)-1H-pyrazolo[4,3-c]pyridine]
0.164	1100	Cc1cncc(-c2cc3c(cn2)cnn3-c2cccc(N3CCNC(C)CC3)n2)n1 (centres unmarked) [Compound 184, 1-[6-(5-methyl-1 4-diazepan-1-yl)-2-pyridyl]-6-(6-methylpyrazin-2-yl)pyrazolo[4,3-c]pyridine]
0.156	919	Cc1cncc(-c2cc3c(cn2)cnn3-c2cccc(N3CCNC[C@H]3C)n2)n1 [Compound 191, 1-[6-[(2R)-2-methylpiperazin-1-yl]-2-pyridyl]-6-(6-methylpyrazin-2-yl)pyrazolo[4,3-c]pyridine]
0.065	1000	Cc1cncc(-c2cc3c(cn2)cnn3-c2cccc(N3CCCC(N)C3C)n2)n1 (centres unmarked) [Compound 195, 2-methyl-1-[6-[6-(6-methylpyrazin-2-yl)pyrazolo[4,3-c]pyridin-1-yl]-2-pyridyl]piperidin-3-amine]
0.012	173	Cc1nc(-c2cc3c(cn2)cnn3-c2cccc(N3CCCNCC3)n2)cnc1N [Compound 208, 5-(1-(6-(1,4-diazepan-1-yl)pyridin-2-yl)-1H-pyrazolo[4,3-c]pyridin-6-yl)-3-methylpyrazin-2-amine]
0.048	1200	Cc1cncc(-c2cc3c(cn2)cnn3-c2ccc(F)c(N3CCC[C@H](N)C3)n2)n1 [Compound 215, (S)-1-(3-fluoro-6-(6-(6-methylpyrazin-2-yl)-1H-pyrazolo[4,3-c]pyridin-1-yl)pyridin-2-yl)piperidin-3-amine]
0.034	1200	Cc1cncc(-c2cc3c(cn2)cnn3-c2ccc(C(F)(F)F)c(N3CCC[C@H](N)C3)n2)n1 [Compound 220, (S)-1-(6-(6-(6-methylpyrazin-2-yl)-1H-pyrazolo[4,3-c]pyridin-1-yl)-3-(trifluoromethyl)pyridin-2-yl)piperidin-3-amine]
0.154	1500	Cn1cc(-c2cc3c(cn2)cnn3-c2cccc(N3CCCNCC3)n2)cn1 [Compound 224, 1-(6-(1,4-Diazepan-1-yl)pyridin-2-yl)-6-(1-methyl-1H-pyrazol-4-yl)-1H-pyrazolo[4,3-c]pyridine]
0.817	840	Cc1cncc(-c2cc3c(cn2)cnn3-c2cccc(N3CCC[C@H](N)C3=O)n2)n1 [Compound 225, (3S)-3-amino-1-[6-[6-(6-methylpyrazin-2-yl)pyrazolo[4,3-c]pyridin-1-yl]-2-pyridyl]piperidin-2-one]
0.026	170	OCCNc1cncc(-c2cc3c(cn2)cnn3-c2cccc(N3CCNCC3)n2)n1 [Compound 282, 2-[[6-[1-(6-piperazin-1-yl-2-pyridyl)pyrazolo[4,3-c]pyridin-6-yl]pyrazin-2-yl]amino]ethanol]
0.148	1000	O[C@H]1CCC[C@@H]1Nc1cncc(-c2cc3c(cn2)cnn3-c2cccc(N3CCNCC3)n2)n1 [Compound 283]
0.43	1200	CNc1cccc(-n2ncc3cnc(-c4cncc(C)n4)cc32)n1 [Compound 297, N-methyl-6-(6-(6-methylpyrazin-2-yl)-1H-pyrazolo[4,3-c]pyridin-1-yl)pyridin-2-amine]
0.089	1300	OCC#Cc1cncc(-c2cc3c(cn2)cnn3-c2cccc(N3CCNCC3)n2)n1 [Compound 300, 3-(6-(1-(6-(piperazin-1-yl)pyridin-2-yl)-1H-pyrazolo[4,3-c]pyridin-6-yl)pyrazin-2-yl)prop-2-yn-1-ol]
10.3	6100	Cc1cncc(-c2cc3c(cn2)cnn3-c2cccc(C(=O)N3CCC[C@H](N)C3)n2)n1 [Compound 302, (S)-(3-aminopiperidin-1-yl)(6-(6-(6-methylpyrazin-2-yl)-1H-pyrazolo[4,3-c]pyridin-1-yl)pyridin-2-yl)methanone]
11.8	6600	Cc1cncc(-c2cc3c(cn2)cnn3-c2cccc(C(=O)N3CCC[C@@H](N)C3)n2)n1 [Compound 303, (R)-(3-aminopiperidin-1-yl)(6-(6-(6-methylpyrazin-2-yl)-1H-pyrazolo[4,3-c]pyridin-1-yl)pyridin-2-yl)methanone]
0.279	1300	c1ccc(-n2ncc3cnc(-c4cncc(NC5CNC5)n4)cc32)nc1 [Compound 308, N-(azetidin-3-yl)-6-(1-(pyridin-2-yl)-1H-pyrazolo[4,3-c]pyridin-6-yl)pyrazin-2-amine]
0.073	236	Cc1cncc(-c2cc3c(cnn3-c3cccc(N4CCNCC4)n3)nn2)n1 [Compound 313, 6-(6-methylpyrazin-2-yl)-1-(6-(piperazin-1-yl)pyridin-2-yl)-1H-pyrazolo[4,3-c]pyridazine]
